The assay deals with Sodium-dependent serotonin transporter (Rattus norvegicus, UniProt P31652). As to the kind of experiment: Ability to inhibit reuptake of serotonin ([3H]5-HT) at serotonin transporter of rat midbrian.

Amino acid sequences for entries named in this document (tags omitted).
UniProt P31652, whole entry: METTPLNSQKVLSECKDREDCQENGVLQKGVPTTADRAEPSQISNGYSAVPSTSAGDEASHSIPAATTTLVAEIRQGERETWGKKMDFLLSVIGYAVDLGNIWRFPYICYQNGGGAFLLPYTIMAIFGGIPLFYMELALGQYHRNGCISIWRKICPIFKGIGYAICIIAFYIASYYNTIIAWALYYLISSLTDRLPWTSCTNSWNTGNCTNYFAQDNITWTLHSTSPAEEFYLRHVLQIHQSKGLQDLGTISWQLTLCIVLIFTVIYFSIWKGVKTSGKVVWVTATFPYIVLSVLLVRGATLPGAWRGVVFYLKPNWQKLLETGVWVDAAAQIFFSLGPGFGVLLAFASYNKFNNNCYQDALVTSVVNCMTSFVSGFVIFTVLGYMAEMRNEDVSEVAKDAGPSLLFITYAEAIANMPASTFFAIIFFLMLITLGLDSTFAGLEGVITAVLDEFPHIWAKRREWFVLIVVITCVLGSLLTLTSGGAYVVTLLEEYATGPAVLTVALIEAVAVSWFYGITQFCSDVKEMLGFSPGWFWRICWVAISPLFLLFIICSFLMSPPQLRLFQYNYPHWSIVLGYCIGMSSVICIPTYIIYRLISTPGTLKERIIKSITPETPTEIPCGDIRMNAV

In ChEMBL document CHEMBL1136297, “Synthesis and pharmacological evaluation of (Z)-9-(heteroarylmethylene)-7-azatricyclo[4.3.1.0(3,7)]decanes: thiophene analogues as potent norepinephrine transporter inhibitors” (Bioorg Med Chem Lett, 2003) one finds Ki data, which are given here for one compound.

The structures appear in SMILES notation.

Turning to `CNCC[C@@H](Oc1ccccc1C)c1ccccc1` [ATOMOXETINE], the inhibition constant (Ki) (commonly the equilibrium dissociation constant of an inhibitor or competing ligand from its target) was 0.077 µM.
